# Experimental data reported in PubChem BioAssay AID633 (Emory University Molecular Libraries Screening Center, 2007).
# By UniProt entry, the sequences of proteins in these tests, tags left out.
# UniProt Q92731, whole entry: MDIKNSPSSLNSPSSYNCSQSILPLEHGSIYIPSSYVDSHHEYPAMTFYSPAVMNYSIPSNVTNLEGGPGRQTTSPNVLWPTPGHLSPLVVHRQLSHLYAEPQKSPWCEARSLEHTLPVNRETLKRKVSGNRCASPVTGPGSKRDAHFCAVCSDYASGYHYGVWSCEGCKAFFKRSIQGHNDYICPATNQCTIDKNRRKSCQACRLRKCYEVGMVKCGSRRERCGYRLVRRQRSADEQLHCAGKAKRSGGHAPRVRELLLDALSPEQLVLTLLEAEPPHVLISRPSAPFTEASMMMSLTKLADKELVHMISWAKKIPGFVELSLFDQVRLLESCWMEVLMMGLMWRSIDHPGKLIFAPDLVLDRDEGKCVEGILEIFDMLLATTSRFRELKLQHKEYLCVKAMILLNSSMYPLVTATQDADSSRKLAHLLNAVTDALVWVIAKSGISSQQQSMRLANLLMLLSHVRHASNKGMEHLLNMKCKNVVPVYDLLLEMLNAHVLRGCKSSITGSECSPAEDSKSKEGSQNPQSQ
# The list shows a part of the results, in another mix than the full data. Active and inactive are the calls of the source.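 How the source made its calls: active means compounds whose percent inhibition of the receptor-coactivator binding signal exceeds about 50% in the single-dose screen (limit read from the data); inactive means the rest.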
# Target: Estrogen receptor beta (Homo sapiens) (UniProt Q92731)
# Assay: blockers of coactivator peptide binding to ERβ – biochemical, TR-FRET, ERβ LBD, SRC-1 peptide, primary screen (AID 633);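 further: 0% = receptor plus peptide wells without compound and 100% = peptide-only wells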
# Conditions: TR-FRET ER-beta LBD / SRC1-Cy5 peptide binding; at 25.6 µM; stronger effect = higher value
row,SMILES,inhibition
1,CC1CCN(C(=O)Oc2c(Cl)cc(Cl)c3cccnc23)CC1,inactive: -4.9%
